According to patent publication US7192924B2, “Corticotropin releasing factor 2 receptor agonists” (priority 2002, dated 2007):
Like-named read-outs stand apart in the source and are kept apart here.

Legend:
[1] = target: T1, CRF2R (Homo sapiens, UniProt Q13324); experiment: CRF2R agonist activity (EC50, Emax), called comparative CRF binding; format: cell-based
T1 sequence (Q13324 1-411): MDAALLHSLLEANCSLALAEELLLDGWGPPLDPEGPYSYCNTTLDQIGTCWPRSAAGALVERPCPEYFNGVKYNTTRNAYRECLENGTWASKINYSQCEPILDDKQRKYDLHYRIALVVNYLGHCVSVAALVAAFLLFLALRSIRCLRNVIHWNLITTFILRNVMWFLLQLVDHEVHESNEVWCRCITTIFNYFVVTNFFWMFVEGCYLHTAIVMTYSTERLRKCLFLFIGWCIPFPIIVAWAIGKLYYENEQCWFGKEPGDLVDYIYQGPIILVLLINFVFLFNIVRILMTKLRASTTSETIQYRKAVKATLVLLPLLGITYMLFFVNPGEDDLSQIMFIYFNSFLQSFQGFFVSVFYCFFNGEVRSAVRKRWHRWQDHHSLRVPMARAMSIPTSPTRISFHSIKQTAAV
In short: (§1)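 Peptides were applied to cells carrying a single CRFR subtype, then cAMP levels or CRE-driven reporter expression were quantified against vehicle-treated cells.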

[2] = target: T2, CRF1R (Homo sapiens, UniProt P34998); experiment: CRF1R agonist activity (EC50, Emax), called comparative CRF binding; format: cell-based
T2 sequence (P34998 24-415): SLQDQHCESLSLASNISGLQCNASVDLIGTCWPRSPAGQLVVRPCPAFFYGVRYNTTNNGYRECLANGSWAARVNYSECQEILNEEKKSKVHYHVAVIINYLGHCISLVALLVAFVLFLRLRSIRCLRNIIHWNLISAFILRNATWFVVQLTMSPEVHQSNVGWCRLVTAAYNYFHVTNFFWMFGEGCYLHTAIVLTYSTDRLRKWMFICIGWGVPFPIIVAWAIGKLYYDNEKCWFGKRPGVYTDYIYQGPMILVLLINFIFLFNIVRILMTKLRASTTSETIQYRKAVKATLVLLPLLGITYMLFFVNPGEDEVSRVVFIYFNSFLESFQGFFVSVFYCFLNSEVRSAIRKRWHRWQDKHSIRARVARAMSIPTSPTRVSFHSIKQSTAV
In short: as §1

SMILES	EC50 ([1]; read-out: CRF2R EC50) [µM]	EC50 ([2]; read-out: CRF1R EC50) [µM]	EC50 [1] [µM]	EC50 [2] [µM]
CC[C@H](C)[C@H](NC(=O)[C@@H](NC(=O)[C@H](CC(=O)O)NC(=O)[C@H](CC(C)C)NC(=O)[C@H](CC(C)C)NC(=O)[C@H](CC(C)C)NC(=O)[C@H](CCCNC(=N)N)NC(=O)[C@H](CC(N)=O)NC(=O)[C@H](CC(N)=O)NC(=O)[C@H](C)NC(=O)[C@H](C)NC(=O)[C@H](CCC(N)=O)NC(=O)[C@H](CCC(N)=O)NC(=O)[C@H](CCCCN)NC(=O)[C@H](CCC(=O)O)NC(=O)[C@H](CCCCN)NC(=O)[C@H](CCC(=O)O)NC(=O)[C@H](CCC(N)=O)NC(=O)[C@H](CCCCN)NC(=O)[C@H](CCC(=O)O)NC(=O)[C@@H](NC(=O)[C@H](CCC(=O)O)NC(=O)[C@@H](NC(=O)[C@H](CCSC)NC(=O)[C@H](CCCCN)NC(=O)[C@H](CCCNC(=N)N)NC(=O)[C@H](CC(C)C)NC(=O)[C@H](CC(C)C)NC(=O)[C@H](Cc1ccccc1)NC(=O)[C@@H](NC(=O)[C@@H]1CCCN1C(=O)[C@H](CC(C)C)NC(=O)[C@H](CC(=O)O)NC(=O)[C@@H](NC(=O)[C@H](CO)NC(=O)[C@@H](NC(=O)[C@@H]1CCCN1C(=O)[C@@H]1CCCN1C(=O)CNC(=O)[C@@H]1CCC(=O)N1)[C@@H](C)CC)[C@@H](C)CC)[C@@H](C)O)[C@@H](C)CC)[C@@H](C)CC)[C@@H](C)O)C(N)=O [compound 44]	0.0192	0.944		
CC[C@H](C)[C@H](NC(=O)[C@@H](NC(=O)[C@H](CC(=O)O)NC(=O)[C@H](CC(C)C)NC(=O)[C@H](CC(C)C)NC(=O)[C@H](CC(C)C)NC(=O)[C@H](CCCNC(=N)N)NC(=O)[C@H](CC(N)=O)NC(=O)[C@H](CC(N)=O)NC(=O)[C@H](C)NC(=O)[C@H](C)NC(=O)[C@H](CCC(N)=O)NC(=O)[C@H](CCC(N)=O)NC(=O)[C@H](CCCCN)NC(=O)[C@H](CCC(=O)O)NC(=O)[C@H](CCCCN)NC(=O)[C@H](CCC(=O)O)NC(=O)[C@H](CCC(N)=O)NC(=O)[C@H](CCCCN)NC(=O)[C@H](CCC(=O)O)NC(=O)[C@@H](NC(=O)[C@H](CCC(=O)O)NC(=O)[C@@H](NC(=O)[C@H](CCSC)NC(=O)[C@H](CCCCN)NC(=O)[C@H](CCCNC(=N)N)NC(=O)[C@H](CC(C)C)NC(=O)[C@H](CC(C)C)NC(=O)[C@H](CC(C)C)NC(=O)[C@@H](NC(=O)[C@@H]1CCCN1C(=O)[C@H](CC(C)C)NC(=O)[C@H](CC(=O)O)NC(=O)[C@@H](NC(=O)[C@H](CO)NC(=O)[C@@H](NC(=O)[C@@H]1CCCN1C(=O)[C@@H]1CCCN1C(=O)CNC(=O)[C@@H]1CCC(=O)N1)[C@@H](C)CC)[C@@H](C)CC)[C@@H](C)O)[C@@H](C)CC)[C@@H](C)CC)[C@@H](C)O)C(N)=O [compound 51]			0.0207	> 1
CC[C@H](C)[C@H](NC(=O)[C@@H](NC(=O)[C@H](CC(=O)O)NC(=O)[C@H](CC(C)C)NC(=O)[C@H](CC(C)C)NC(=O)[C@H](CC(C)C)NC(=O)[C@H](CCCNC(=N)N)NC(=O)[C@H](CC(N)=O)NC(=O)[C@H](CC(N)=O)NC(=O)[C@H](C)NC(=O)[C@H](C)NC(=O)[C@H](CCC(N)=O)NC(=O)[C@H](CCC(N)=O)NC(=O)[C@H](CCCCN)NC(=O)[C@H](CCC(=O)O)NC(=O)[C@H](CCCCN)NC(=O)[C@H](CCC(=O)O)NC(=O)[C@H](CCC(N)=O)NC(=O)[C@H](CCCCN)NC(=O)[C@H](CCC(=O)O)NC(=O)[C@@H](NC(=O)[C@H](CCC(=O)O)NC(=O)[C@@H](NC(=O)[C@H](CCSC)NC(=O)[C@H](CCCCN)NC(=O)[C@H](CCCNC(=N)N)NC(=O)[C@H](CC(C)C)NC(=O)[C@H](CC(C)C)NC(=O)[C@H](Cc1ccc(O)cc1)NC(=O)[C@H](CCCCN)NC(=O)[C@@H]1CCCN1C(=O)[C@H](CC(C)C)NC(=O)[C@H](CC(=O)O)NC(=O)[C@@H](NC(=O)[C@H](CO)NC(=O)[C@@H](NC(=O)[C@@H]1CCCN1C(=O)[C@@H]1CCCN1C(=O)CNC(=O)[C@@H]1CCC(=O)N1)[C@@H](C)CC)[C@@H](C)CC)[C@@H](C)CC)[C@@H](C)CC)[C@@H](C)O)C(N)=O [compound 58]			0.0716	> 0.1
CC[C@H](C)[C@H](NC(=O)[C@@H](NC(=O)[C@H](CC(=O)O)NC(=O)[C@H](CC(C)C)NC(=O)[C@H](CC(C)C)NC(=O)[C@H](CC(C)C)NC(=O)[C@H](CCCNC(=N)N)NC(=O)[C@H](CC(N)=O)NC(=O)[C@H](CC(N)=O)NC(=O)[C@H](C)NC(=O)[C@H](C)NC(=O)[C@H](CCC(N)=O)NC(=O)[C@H](CCC(N)=O)NC(=O)[C@H](CCCCN)NC(=O)[C@H](CCC(=O)O)NC(=O)[C@H](CCCCN)NC(=O)[C@H](CCC(=O)O)NC(=O)[C@H](CCC(N)=O)NC(=O)[C@H](CCCCN)NC(=O)[C@H](CCC(=O)O)NC(=O)[C@@H](NC(=O)[C@H](CCC(=O)O)NC(=O)[C@@H](NC(=O)[C@H](CCSC)NC(=O)[C@H](CCCCN)NC(=O)[C@H](CCCNC(=N)N)NC(=O)[C@H](CC(C)C)NC(=O)[C@H](CC(C)C)NC(=O)[C@H](Cc1ccc(O)cc1)NC(=O)[C@H](CC(N)=O)NC(=O)[C@@H]1CCCN1C(=O)[C@H](CC(C)C)NC(=O)[C@H](CC(=O)O)NC(=O)[C@@H](NC(=O)[C@H](CO)NC(=O)[C@@H](NC(=O)[C@@H]1CCCN1C(=O)[C@@H]1CCCN1C(=O)CNC(=O)[C@@H]1CCC(=O)N1)[C@@H](C)CC)[C@@H](C)CC)[C@@H](C)CC)[C@@H](C)CC)[C@@H](C)O)C(N)=O [compound 64]	0.0633	0.0689		
CC[C@H](C)[C@H](NC(=O)[C@@H](NC(=O)[C@H](CC(=O)O)NC(=O)[C@H](CC(C)C)NC(=O)[C@H](CC(C)C)NC(=O)[C@H](CC(C)C)NC(=O)[C@H](CCCNC(=N)N)NC(=O)[C@H](CC(N)=O)NC(=O)[C@H](CC(N)=O)NC(=O)[C@H](C)NC(=O)[C@H](C)NC(=O)[C@H](CCC(N)=O)NC(=O)[C@H](CCC(N)=O)NC(=O)[C@H](CCCCN)NC(=O)[C@H](CCC(=O)O)NC(=O)[C@H](CCCCN)NC(=O)[C@H](CCC(=O)O)NC(=O)[C@H](CCC(N)=O)NC(=O)[C@H](CCCCN)NC(=O)[C@H](CCC(=O)O)NC(=O)[C@@H](NC(=O)[C@H](CCC(=O)O)NC(=O)[C@@H](NC(=O)[C@H](CCSC)NC(=O)[C@H](CCCCN)NC(=O)[C@H](CCCNC(=N)N)NC(=O)[C@H](CC(C)C)NC(=O)[C@H](CC(C)C)NC(=O)[C@H](CCC(=O)O)NC(=O)[C@H](Cc1ccccc1)NC(=O)[C@@H]1CCCN1C(=O)[C@H](CC(C)C)NC(=O)[C@H](CC(=O)O)NC(=O)[C@@H](NC(=O)[C@H](CO)NC(=O)[C@@H](NC(=O)[C@@H]1CCCN1C(=O)[C@@H]1CCCN1C(=O)CNC(=O)[C@@H]1CCC(=O)N1)[C@@H](C)CC)[C@@H](C)CC)[C@@H](C)CC)[C@@H](C)CC)[C@@H](C)O)C(N)=O [compound 67]			0.01	0.0442
CC[C@H](C)[C@H](NC(=O)[C@@H](NC(=O)[C@H](CC(=O)O)NC(=O)[C@H](CC(C)C)NC(=O)[C@H](CC(C)C)NC(=O)[C@H](CC(C)C)NC(=O)[C@H](CCCNC(=N)N)NC(=O)[C@H](CC(N)=O)NC(=O)[C@H](CC(N)=O)NC(=O)[C@H](C)NC(=O)[C@H](C)NC(=O)[C@H](CCC(N)=O)NC(=O)[C@H](CCC(N)=O)NC(=O)[C@H](CCCCN)NC(=O)[C@H](CCC(=O)O)NC(=O)[C@H](CCCCN)NC(=O)[C@H](CCC(=O)O)NC(=O)[C@H](CCC(N)=O)NC(=O)[C@H](CCCCN)NC(=O)[C@H](CCC(=O)O)NC(=O)[C@@H](NC(=O)[C@H](CCC(=O)O)NC(=O)[C@@H](NC(=O)[C@H](CCSC)NC(=O)[C@H](CCCCN)NC(=O)[C@H](CCCNC(=N)N)NC(=O)[C@H](CC(C)C)NC(=O)[C@H](CC(C)C)NC(=O)CNC(=O)[C@H](Cc1ccccc1)NC(=O)[C@@H]1CCCN1C(=O)[C@H](CC(C)C)NC(=O)[C@H](CC(=O)O)NC(=O)[C@@H](NC(=O)[C@H](CO)NC(=O)[C@@H](NC(=O)[C@@H]1CCCN1C(=O)[C@@H]1CCCN1C(=O)CNC(=O)[C@@H]1CCC(=O)N1)[C@@H](C)CC)[C@@H](C)CC)[C@@H](C)CC)[C@@H](C)CC)[C@@H](C)O)C(N)=O [compound 68]	0.0386	> 0.1		
CC[C@H](C)[C@H](NC(=O)[C@@H](NC(=O)[C@H](CC(=O)O)NC(=O)[C@H](CC(C)C)NC(=O)[C@H](CC(C)C)NC(=O)[C@H](CC(C)C)NC(=O)[C@H](CCCNC(=N)N)NC(=O)[C@H](CC(N)=O)NC(=O)[C@H](CC(N)=O)NC(=O)[C@H](C)NC(=O)[C@H](C)NC(=O)[C@H](CCC(N)=O)NC(=O)[C@H](CCC(N)=O)NC(=O)[C@H](CCCCN)NC(=O)[C@H](CCC(=O)O)NC(=O)[C@H](CCCCN)NC(=O)[C@H](CCC(=O)O)NC(=O)[C@H](CCC(N)=O)NC(=O)[C@H](CCCCN)NC(=O)[C@H](CCC(=O)O)NC(=O)[C@@H](NC(=O)[C@H](CCC(=O)O)NC(=O)[C@@H](NC(=O)[C@H](CCSC)NC(=O)[C@H](CCCCN)NC(=O)[C@H](CCCNC(=N)N)NC(=O)[C@H](CC(C)C)NC(=O)[C@H](CC(C)C)NC(=O)[C@H](CCC(=O)O)NC(=O)[C@@H](NC(=O)[C@@H]1CCCN1C(=O)[C@H](CC(C)C)NC(=O)[C@H](CC(=O)O)NC(=O)[C@@H](NC(=O)[C@H](CO)NC(=O)[C@@H](NC(=O)[C@@H]1CCCN1C(=O)[C@@H]1CCCN1C(=O)CNC(=O)[C@@H]1CCC(=O)N1)[C@@H](C)CC)[C@@H](C)CC)[C@@H](C)O)[C@@H](C)CC)[C@@H](C)CC)[C@@H](C)O)C(N)=O [compound 71]			0.0948	> 0.1
